Values of other authors as cited in patent US20110246079A1, “INDIVIDUAL 5-FLUOROURACILE DOSE OPTIMIZATION IN FOLFOX TREATMENT” (Centre Regional De Lutte Contre, priority 2008, published 2011).

Tested on: 5-FU metabolism
Details: in vivo

## O=C1[O][Pt]2([NH][C@@H]3CCCC[C@H]3[NH]2)[O]C1=O [oxaliplatin]
  induced toxicities: diarrhea and leucopenia
